We go through 1 molecule from article PMC3665789 (PLoS ONE, 2013).

The test system of assay [1] is herpes simplex virus (HSV). On the set-up: method as in PMID 20082397. As to conditions: cited from earlier work.
For assay [2], the system named is HSV. As to conditions: Tables 3 and 4.
The test system of assay [3] is neuropathic pain. On the set-up: method as in PMID 20082397. As to conditions: cited from earlier work.

The structures appear in SMILES notation.

For the molecule `CC(C)C[C@@H]1NC(=O)[C@]23CSC[C@H](NC(=O)[C@H](C)NC(=O)[C@H](Cc4ccccc4)NC1=O)C(=O)N[C@H](C(=O)O)CSSC[C@H](NC(=O)[C@@H]1CSC[C@]4(C[C@H](N)C(=O)N[C@@H](CC(=O)O)C(=O)N[C@@H](Cc5c[nH]c6ccccc56)C(=O)N4)C(=O)N[C@@H](CC(C)C)C(=O)N[C@@H](Cc4c[nH]c5ccccc45)C(=O)N[C@@H](CCC(=O)O)C(=O)N1)C(=O)N[C@@H](C2)C(=O)N[C@@H]([C@@H](C)O)C(=O)NCC(=O)N3` [LabyA2, labyrinthopeptin A2], the anti-herpetic activity result in assay [1] is on record as “moderate anti-herpetic activity”. Moreover, the “fold less potent than LabyA1 against HSV (on average)” value in assay [2] is on record as “at least 10 fold”. Besides, in assay [3], the “activity in a neuropathic pain mouse model” value is “pronounced activity”.
